Literature values, collected in patent US20020001615A1, “Combined interferon alfa and lipsosmal-encapsulated all-trans retinoic acid, including preparation and use” (Aronex Pharmaceuticals, Inc., priority 2000, published 2002).

System: metastatic RCC
Details: IL-2 based therapy

Substance: IL-2: Interleukin-2, biological response modifier
- proportion of patients experiencing significant responses: approximately 15%
